In the SangsterLogP compilation:

O=C(O)CCCCC(=O)O
logP: 0.08
